Molecular target: Klenow (3′→5′ exo(−)) fragment of E. coli DNA polymerase (Escherichia coli, UniProt P00582, D355A/E357A)

Amino acid sequences for entries named in this document (tags omitted). Residues count along the entry.
UniProt P00582, 324-928 D355A/E357A limits assumed: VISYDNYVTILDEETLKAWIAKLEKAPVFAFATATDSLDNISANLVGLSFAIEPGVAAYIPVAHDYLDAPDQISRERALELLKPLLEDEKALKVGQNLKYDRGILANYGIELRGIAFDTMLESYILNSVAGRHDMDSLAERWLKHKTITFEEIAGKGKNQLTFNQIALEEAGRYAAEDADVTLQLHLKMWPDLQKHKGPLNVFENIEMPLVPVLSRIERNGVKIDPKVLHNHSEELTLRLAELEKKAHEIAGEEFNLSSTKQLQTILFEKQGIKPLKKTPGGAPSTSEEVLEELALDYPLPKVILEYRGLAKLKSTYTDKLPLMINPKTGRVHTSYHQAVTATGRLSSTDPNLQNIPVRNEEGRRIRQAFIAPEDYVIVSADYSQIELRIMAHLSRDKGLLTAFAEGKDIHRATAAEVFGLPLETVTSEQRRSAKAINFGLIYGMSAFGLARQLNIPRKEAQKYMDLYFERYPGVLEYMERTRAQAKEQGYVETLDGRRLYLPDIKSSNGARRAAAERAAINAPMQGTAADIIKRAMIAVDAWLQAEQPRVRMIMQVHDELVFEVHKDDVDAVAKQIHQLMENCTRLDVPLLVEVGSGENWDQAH

O=S(=O)([O-])[O-].O=S(=O)([O-])[O-].[Fe+2].[NH4+].[NH4+] [Fe2+, ferrous ammonium sulfate]
binding of Klenow exo(−) and dCTP to biosensor coated with ssDNA primer-template: transient peak
nucleotide incorporation by Klenow exo(−) in the absence of Mg2+: complete nucleotide incorporation
